According to US11143649B2 (dated 2021):

Molecular target: IL-2 Antibody
Test: BSI free-solution binding assay
Details: receptor IL-2 Antibody

Kd: 0.0259 nM
Substance: Interleukin-2: ligand of IL-2 Antibody; antibody-antigen pair of the training set
